Laboratory results from patent EP0971717B1, “CYTOTOXIC AMINO SUGAR AND RELATED SUGAR DERIVATIVES OF INDOLOPYRROLOCARBAZOLES” (Bristol-Myers Squibb Company, priority 1996, dated 1998).

Sequences of proteins named here, by UniProt entry; tags and fusion partners are left off.
UniProt P11387, whole entry: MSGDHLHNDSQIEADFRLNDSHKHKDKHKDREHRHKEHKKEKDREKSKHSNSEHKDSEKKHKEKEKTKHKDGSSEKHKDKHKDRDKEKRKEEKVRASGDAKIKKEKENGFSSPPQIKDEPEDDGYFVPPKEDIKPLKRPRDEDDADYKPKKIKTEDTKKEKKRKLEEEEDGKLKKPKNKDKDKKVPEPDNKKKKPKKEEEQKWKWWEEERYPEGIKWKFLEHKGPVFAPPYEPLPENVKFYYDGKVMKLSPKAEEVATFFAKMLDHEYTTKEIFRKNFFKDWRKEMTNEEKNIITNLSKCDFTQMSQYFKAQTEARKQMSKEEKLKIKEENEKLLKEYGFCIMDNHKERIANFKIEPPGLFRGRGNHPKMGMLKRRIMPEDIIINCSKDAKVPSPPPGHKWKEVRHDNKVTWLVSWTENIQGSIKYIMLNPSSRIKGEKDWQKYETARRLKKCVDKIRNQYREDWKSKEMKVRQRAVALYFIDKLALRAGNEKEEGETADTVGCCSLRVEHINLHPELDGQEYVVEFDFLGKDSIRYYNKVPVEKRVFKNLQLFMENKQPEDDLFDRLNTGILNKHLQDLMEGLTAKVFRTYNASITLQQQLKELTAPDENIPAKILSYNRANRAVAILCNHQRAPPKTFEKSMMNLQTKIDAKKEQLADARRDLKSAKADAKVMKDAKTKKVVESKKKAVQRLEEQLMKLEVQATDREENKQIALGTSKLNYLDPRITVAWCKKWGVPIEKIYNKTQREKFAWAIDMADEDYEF

Columns and labels:
[1] = tested on: HCT116 human colon carcinoma cells; experiment: In-vitro cell-based cytotoxicity, XTT assay; settings: 72 hrs incubation, absorbance at 450 nm
Procedure: The proliferation inhibition activity against human colon cell line was measured as follows.
Cytotoxicity was assessed in HCT116 human colon carcinoma cells by XTT (2,3-bis(2-methoxy-4-nitro- 5-sulfophenyl)-5-[(phenylamino)carbonyl]-2H-tetrazolium hydroxide assay as described in the literature by Scudiero, DA, Shoemaker, RH, Paull, KD, Monks, A, Tierney, S, Nofziger, TH, Currens, MJ, Seniff, D, and Boyd, MR. Evaluation of a soluble tetrazolium/formazan assay for cell growth and drug sensitivity in culture using human and other tumor cell lines, was done according to the procedure described in Cancer Res. 48: 4827-4833, 1988. Cells were plated at 4000 cells/well in 96 well microtiter plates and 24 hrs later drugs were added and serial diluted. The cells were incubated at 37° C for 72 hrs at which time the tetrazolium dye, XTT, containing phenazine methosulfate was added. A dehydrogenase enzyme in live cells reduces the XTT to a form that absorbs light at […] which can be quantitated spectrophotometrically. The greater the absorbance the greater the number of live cells. The results are expressed as an IC50 which is the drug concentration required to inhibit cell proliferation (i.e. absorbance at 450 nm) to 50% of that of untreated control cells.

[2] = target: purified human topoisomerase I (Homo sapiens, UniProt P11387); experiment: Topoisomerase I mediated single strand break formation in DNA (in vitro); settings: PM2 DNA, 30 minutes at 37° C; median effective concentration for single strand DNA break formation
Procedure: Samples dissolved in 100% DMSO as either […] or 10 mg/ml solutions, unless otherwise stated, were diluted in Tris-EDTA buffer. Marine bacteriophage PM2 DNA (Boehringer Mannheim) was also diluted in Tris-EDTA buffer to a concentration of 0.02 µg/µl. Different dilutions of compound being evaluated were mixed with diluted DNA and this mixture was added to 1000 unit (one unit of enzyme activity is defined as the amount capable of relaxing 100 ng of supercoiled DNA in approximately 30 minutes at 37°C) aliquots of purified human topoisomerase I (Topogen) in 2X reaction buffer to start the reaction. The compound - DNA - enzyme mixture was incubated for 30 minutes at 37° C before stopping the reaction with warm stop buffer containing sodium dodecyl sulfate and proteinase K (Sigma). These mixtures were allowed to incubate at 37° C for another 10 minutes, at which time the mixtures were removed from the waterbath and extracted with a 24:1 mixture of chloroform/isoamyl alcohol. […] Negatives of photographs of the irradiated gels were scanned with a densitometer and areas under the peaks were calculated in order to obtain percent single strand DNA break formation for each sample. […]

For [N-]=[N+]=NC[C@H]1O[C@@H](n2c3ccc(F)cc3c3c4c(c5c6cc(F)ccc6[nH]c5c32)C(=O)NC4=O)[C@H](O)[C@@H](O)[C@@H]1O, the IC50 [1] was 170 nM and the EC50 [2] was 230 nM.
